Data published in ChEMBL document CHEMBL3580663, “C7β-methyl analogues of the orvinols: the discovery of kappa opioid antagonists with nociceptin/orphanin FQ peptide (NOP) receptor partial agonism and low, or zero, efficacy at mu opioid receptors” (2015).

Amino acid sequences for entries named in this document (tags omitted).
UniProt P41145, whole entry: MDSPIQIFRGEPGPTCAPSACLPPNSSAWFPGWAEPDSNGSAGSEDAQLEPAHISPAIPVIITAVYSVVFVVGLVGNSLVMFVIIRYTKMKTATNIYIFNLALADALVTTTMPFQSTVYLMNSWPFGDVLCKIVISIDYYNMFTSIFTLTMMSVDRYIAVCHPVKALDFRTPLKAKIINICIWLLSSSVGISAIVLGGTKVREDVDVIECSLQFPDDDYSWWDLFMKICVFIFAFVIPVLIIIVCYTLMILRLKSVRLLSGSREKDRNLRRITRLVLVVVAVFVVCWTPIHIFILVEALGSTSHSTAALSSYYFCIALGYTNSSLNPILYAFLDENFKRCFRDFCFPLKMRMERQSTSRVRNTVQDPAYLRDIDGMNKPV
UniProt P41146, whole entry: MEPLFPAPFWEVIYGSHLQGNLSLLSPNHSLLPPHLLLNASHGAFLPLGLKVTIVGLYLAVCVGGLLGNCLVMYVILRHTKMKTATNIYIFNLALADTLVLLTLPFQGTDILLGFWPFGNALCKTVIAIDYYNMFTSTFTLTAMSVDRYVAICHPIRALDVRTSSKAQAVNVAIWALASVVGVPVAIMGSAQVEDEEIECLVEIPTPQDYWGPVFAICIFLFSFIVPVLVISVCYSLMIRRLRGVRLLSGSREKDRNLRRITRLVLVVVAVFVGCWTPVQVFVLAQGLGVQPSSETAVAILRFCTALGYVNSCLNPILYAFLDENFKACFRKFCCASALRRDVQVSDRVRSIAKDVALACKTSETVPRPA
UniProt P33535, whole entry: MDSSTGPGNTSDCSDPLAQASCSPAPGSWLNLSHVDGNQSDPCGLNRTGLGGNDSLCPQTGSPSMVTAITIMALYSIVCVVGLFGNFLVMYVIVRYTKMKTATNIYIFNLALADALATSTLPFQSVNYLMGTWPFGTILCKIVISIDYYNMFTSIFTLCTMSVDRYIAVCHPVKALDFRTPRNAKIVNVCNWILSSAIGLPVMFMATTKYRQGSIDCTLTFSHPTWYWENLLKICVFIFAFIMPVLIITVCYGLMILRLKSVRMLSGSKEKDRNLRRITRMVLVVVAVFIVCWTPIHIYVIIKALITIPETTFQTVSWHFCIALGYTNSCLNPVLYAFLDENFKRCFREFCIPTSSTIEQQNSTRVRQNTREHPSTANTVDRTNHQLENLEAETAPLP
UniProt P33533, whole entry: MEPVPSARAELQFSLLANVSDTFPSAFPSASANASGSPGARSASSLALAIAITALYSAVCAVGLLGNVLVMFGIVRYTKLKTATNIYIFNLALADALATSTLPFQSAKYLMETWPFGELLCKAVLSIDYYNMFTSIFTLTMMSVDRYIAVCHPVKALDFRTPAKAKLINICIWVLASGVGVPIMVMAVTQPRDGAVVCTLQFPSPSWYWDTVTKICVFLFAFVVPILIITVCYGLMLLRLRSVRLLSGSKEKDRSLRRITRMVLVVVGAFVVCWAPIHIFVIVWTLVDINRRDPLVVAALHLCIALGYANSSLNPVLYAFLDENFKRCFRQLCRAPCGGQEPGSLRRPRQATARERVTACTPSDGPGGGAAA

Experiments:
[1] = target: Kappa-type opioid receptor (Homo sapiens) (UniProt P41145); assay: Agonist activity at human kappa opioid receptor expressed in CHO cell membranes assessed as stimulation of [35S]GTPgammaS binding at 10 uM relative to U69,593
[2] = target: Nociceptin receptor (Homo sapiens) (UniProt P41146); assay: Agonist activity at human NOP receptor expressed in HEK293 cell membranes assessed as stimulation of [35S]GTPgammaS binding at 10 uM relative to nociceptin
[3] = target: Kappa-type opioid receptor (Homo sapiens) (UniProt P41145); assay: Antagonist activity against human kappa opioid receptor expressed in CHO cell membranes assessed as inhibition of U69,593-induced [35S]GTPgammaS binding
[4] = target: Mu-type opioid receptor (Rattus norvegicus) (UniProt P33535); assay: Agonist activity at rat mu opioid receptor expressed in rat C6 cell membranes assessed as stimulation of [35S]GTPgammaS binding at 10 uM relative to DAMGO
[5] = target: Delta-type opioid receptor (Rattus norvegicus) (UniProt P33533); assay: Agonist activity at rat delta opioid receptor expressed in rat C6 cell membranes assessed as stimulation of [35S]GTPgammaS binding at 10 uM relative to DPDPE

| Compound | %max [1] [%] | %max [2] [%] | Ke [3] [nM] | %max [4] [%] | %max [5] [%] |
| --- | --- | --- | --- | --- | --- |
| CO[C@]12CC[C@@]3(C[C@]1(C)[C@H](O)c1ccccc1C)[C@H]1Cc4ccc(O)c5c4[C@@]3(CCN1CC1CC1)[C@H]2O5 | -4 | 15 | 0.13 |  |  |
| CO[C@]12CC[C@@]3(C[C@]1(C)[C@@H](O)c1ccccc1)[C@H]1Cc4ccc(O)c5c4[C@@]3(CCN1CC1CC1)[C@H]2O5 | 97 | 10 |  | 33 |  |
| CO[C@]12CC[C@@]3(C[C@@H]1[C@](C)(O)c1cccc(Cl)c1)[C@H]1Cc4ccc(O)c5c4[C@@]3(CCN1CC1CC1)[C@H]2O5 | 26 |  |  |  |  |
| CO[C@]12CC[C@@]3(C[C@]1(C)[C@H](O)c1cccc(Cl)c1)[C@H]1Cc4ccc(O)c5c4[C@@]3(CCN1CC1CC1)[C@H]2O5 | 7 | 42 |  | 7 |  |
| CCCSc1ccc([C@@H](O)[C@@]2(C)C[C@@]34C=C[C@]2(OC)[C@@H]2Oc5c(O)ccc6c5[C@@]23CCN(CC2CC2)[C@@H]4C6)cc1 | 4 | 20 |  |  |  |
| CO[C@]12C=C[C@@]3(C[C@]1(C)[C@H](O)c1ccccc1C)[C@H]1Cc4ccc(O)c5c4[C@@]3(CCN1CC1CC1)[C@H]2O5 | -4 | 17 |  | 12 |  |
| CO[C@]12C=C[C@@]3(C[C@]1(C)[C@@H](O)c1cccc(C)c1)[C@H]1Cc4ccc(O)c5c4[C@@]3(CCN1CC1CC1)[C@H]2O5 | 92 | 11 |  |  |  |
| CO[C@]12CC[C@@]3(C[C@]1(C)[C@H](O)c1cccc(F)c1)[C@H]1Cc4ccc(O)c5c4[C@@]3(CCN1CC1CC1)[C@H]2O5 | 15 | 31 |  | 2 |  |
| CO[C@]12CC[C@@]3(C[C@]1(C)[C@H](O)c1sccc1C)[C@H]1Cc4ccc(O)c5c4[C@@]3(CCN1CC1CC1)[C@H]2O5 | 26 | 15 |  | 31 |  |
| CO[C@]12CC[C@@]3(C[C@]1(C)[C@H](O)c1ccc(Cl)s1)[C@H]1Cc4ccc(O)c5c4[C@@]3(CCN1CC1CC1)[C@H]2O5 | 10 | 16 |  | 61 |  |
| CO[C@]12CC[C@@]3(C[C@]1(C)[C@H](O)c1ccc(F)cc1)[C@H]1Cc4ccc(O)c5c4[C@@]3(CCN1CC1CC1)[C@H]2O5 |  |  | 0.1 |  | 6 |
| CO[C@]12CC[C@@]3(C[C@]1(C)[C@H](O)c1ccccc1)[C@H]1Cc4ccc(O)c5c4[C@@]3(CCN1CC1CC1)[C@H]2O5 | -2 | 56 | 0.09 |  | 0 |
| CO[C@]12C=C[C@@]3(C[C@]1(C)[C@@H](O)c1ccc(F)cc1)[C@H]1Cc4ccc(O)c5c4[C@@]3(CCN1CC1CC1)[C@H]2O5 | 45 | 7 |  | 55 |  |
| CO[C@]12CC[C@@]3(C[C@]1(C)[C@H](O)c1ccoc1)[C@H]1Cc4ccc(O)c5c4[C@@]3(CCN1CC1CC1)[C@H]2O5 | 2 | 29 |  | 1 |  |
| CO[C@]12CC[C@@]3(C[C@]1(C)[C@H](O)c1cccc(C)c1)[C@H]1Cc4ccc(O)c5c4[C@@]3(CCN1CC1CC1)[C@H]2O5 |  | 61 | 0.12 | 7 |  |
| CO[C@]12CC[C@@]3(C[C@@H]1[C@](C)(O)c1ccccc1)[C@H]1Cc4ccc(O)c5c4[C@@]3(CCN1CC1CC1)[C@H]2O5 | 19 |  |  | 6 |  |
| CO[C@]12C=C[C@@]3(C[C@]1(C)[C@@H](O)c1ccc(C)cc1)[C@H]1Cc4ccc(O)c5c4[C@@]3(CCN1CC1CC1)[C@H]2O5 | 8 | 4 |  | 49 |  |
| COc1ccc([C@@H](O)[C@@]2(C)C[C@@]34CC[C@]2(OC)[C@@H]2Oc5c(O)ccc6c5[C@@]23CCN(CC2CC2)[C@@H]4C6)cc1 | 2 | 3 |  | 15 |  |
| CO[C@]12C=C[C@@]3(C[C@]1(C)[C@H](O)c1ccccc1)[C@H]1Cc4ccc(O)c5c4[C@@]3(CCN1CC1CC1)[C@H]2O5 | 3 | 56 |  | 4 | 7 |
| CO[C@]12CC[C@@]3(C[C@]1(C)[C@H](O)c1cccs1)[C@H]1Cc4ccc(O)c5c4[C@@]3(CCN1CC1CC1)[C@H]2O5 | 20 | 6 |  |  |  |
| CO[C@]12CC[C@@]3(C[C@]1(C)[C@H](O)c1ccc(C)cc1)[C@H]1Cc4ccc(O)c5c4[C@@]3(CCN1CC1CC1)[C@H]2O5 | -5 | 4 | 0.1 |  |  |
| CO[C@]12CC[C@@]3(C[C@]1(C)[C@H](O)c1ccsc1)[C@H]1Cc4ccc(O)c5c4[C@@]3(CCN1CC1CC1)[C@H]2O5 | 28 | 2 |  | 10 |  |
| CO[C@]12C=C[C@@]3(C[C@]1(C)[C@H](O)c1ccc(C)cc1)[C@H]1Cc4ccc(O)c5c4[C@@]3(CCN1CC1CC1)[C@H]2O5 | -6 | 14 |  | 35 |  |
| CO[C@]12C=C[C@@]3(C[C@]1(C)[C@@H](O)c1ccccc1)[C@H]1Cc4ccc(O)c5c4[C@@]3(CCN1CC1CC1)[C@H]2O5 | 62 | 5 |  |  |  |
| CO[C@]12C=C[C@@]3(C[C@]1(C)[C@@H](O)c1ccccc1C)[C@H]1Cc4ccc(O)c5c4[C@@]3(CCN1CC1CC1)[C@H]2O5 | 72 | 12 |  | 48 |  |
| CO[C@]12C=C[C@@]3(C[C@]1(C)[C@H](O)c1ccc(F)cc1)[C@H]1Cc4ccc(O)c5c4[C@@]3(CCN1CC1CC1)[C@H]2O5 | 9 | 51 |  |  |  |
| CO[C@]12C=C[C@@]3(C[C@]1(C)[C@H](O)c1cccc(C)c1)[C@H]1Cc4ccc(O)c5c4[C@@]3(CCN1CC1CC1)[C@H]2O5 | 6 | 54 |  |  | 15 |
